{
  "source": "patent US20090197852A9",
  "about": "(priority 2001, published 2009)",
  "assay": "Trastuzumab concentration PK (ELISA) in trial of 17-AAG with trastuzumab",
  "data": [
    {"substance": "trastuzumab", "values": [
      {"measurement": "effect of the dose level of 17-AAG on the PK of trastuzumab", "setting": "cohorts 1 to 3 (225, 300, 375 mg/m^2 17-AAG)", "result": "did not affect the PK of trastuzumab"},
      {"measurement": "AUCtotal", "setting": "overall, trastuzumab 4 mg/kg loading dose over 90 min, first infusion", "result": "12,947±3,442 μg/m*h"}
    ]}
  ]
}
